The values that follow are results of earlier work, collected in article PMC10202811 (Nature Medicine, 2023).

Each structure is given as a SMILES string.

For data set [1], the system named is refractory or relapsed ALK-mutant neuroblastoma. Also on record: method as in PMID 33568345. The following applies: children, 3/20; cited from earlier work.
Data set [2] deals with ALK-fusion-driven refractory or relapsed anaplastic large cell lymphoma. Also on record: method as in PMID 28787259. The following applies: cited from earlier work.

Regarding `C[C@@H](Oc1cc(-c2cnn(C3CCNCC3)c2)cnc1N)c1c(Cl)ccc(F)c1Cl` [crizotinib], in data set [1], the “RR (CR/PR)” value is on record as 15%. Moreover, the RR in data set [2] was 90%.
